Measurements published in patent EP3331859B1, “BROAD SPECTRUM REACTIVATORS OF OPNA-INHIBITION OF HUMAN CHOLINESTERASES” (dated 2017).
pKd: −log10 of the molar value.

Amino acid sequences for entries named in this document (tags omitted). A change or cut given only in a name is not applied to a line headed by its entry.
UniProt P22303: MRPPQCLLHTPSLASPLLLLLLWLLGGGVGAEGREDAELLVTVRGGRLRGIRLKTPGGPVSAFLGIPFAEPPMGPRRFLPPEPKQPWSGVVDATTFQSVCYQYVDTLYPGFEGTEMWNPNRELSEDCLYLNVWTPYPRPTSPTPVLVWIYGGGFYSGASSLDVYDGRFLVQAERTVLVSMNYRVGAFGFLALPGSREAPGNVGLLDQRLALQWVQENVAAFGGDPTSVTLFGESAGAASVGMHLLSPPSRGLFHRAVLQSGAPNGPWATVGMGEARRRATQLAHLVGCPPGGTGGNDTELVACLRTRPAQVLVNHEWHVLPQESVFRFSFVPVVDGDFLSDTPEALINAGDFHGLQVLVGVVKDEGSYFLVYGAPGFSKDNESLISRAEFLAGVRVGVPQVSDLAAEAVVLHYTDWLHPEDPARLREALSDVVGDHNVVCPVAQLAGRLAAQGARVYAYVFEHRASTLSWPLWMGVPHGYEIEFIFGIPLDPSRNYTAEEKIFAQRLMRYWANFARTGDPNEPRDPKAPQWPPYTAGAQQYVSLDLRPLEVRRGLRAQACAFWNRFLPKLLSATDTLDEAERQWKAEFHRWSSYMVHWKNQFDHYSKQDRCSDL

Assays:
sarin-inhibited AChE = sarin-inhibited AChE (Homo sapiens, UniProt P22303); experiment: In vitro reactivation of hAChE inhibited by sarin (Ellman)
paraoxon-inhibited AChE = paraoxon-inhibited AChE (Homo sapiens, UniProt P22303); experiment: In vitro reactivation of hAChE inhibited by paraoxon (Ellman)
tabun-inhibited hAChE = tabun-inhibited hAChE (Homo sapiens, UniProt P22303); experiment: In vitro reactivation of hAChE inhibited by tabun (Ellman)
[1] = dissociation constant of inhibited enzyme-oxime complex, 37 °C, pH 7.4
[2] = maximal reactivation rate constant, 37 °C, phosphate buffer 0.1 M pH 7.4

HLö-7 was tested. Which pKd (sarin-inhibited AChE; [1]) did it give?
The pKd was 4.62.

What about the kr2 (sarin-inhibited AChE; kr2 = kr/KD) of the same substance?
The kr2 was 583 M⁻¹ s⁻¹.

And the kr (sarin-inhibited AChE; [2])?
The kr was 0.849 min⁻¹.

What about the pKd (paraoxon-inhibited AChE; [1]) of the same substance?
Its pKd is 3.68.

What about the kr2 (paraoxon-inhibited AChE; kr2 = kr/KD) of the same substance?
Its kr2 is 50 M⁻¹ s⁻¹.

And the kr (paraoxon-inhibited AChE; [2])?
The kr was 0.63 ± 0.04 min⁻¹.

And the pKd (tabun-inhibited hAChE; [1])?
Its pKd is 3.97.

And the kr2 (tabun-inhibited hAChE; kr2 = kr/KD)?
The kr2 was 3.3 M⁻¹ s⁻¹.

What about the kr (tabun-inhibited hAChE; [2]) of the same substance?
The kr was 0.020 ± 0.0007 min⁻¹.
